Assay results as given in patent US20050014682A1, “Cell-free assay for insulin signaling” (priority 2003, published 2005).

Columns and labels:
glucose uptake = details: adipocytes; Calderhead, 1990; cited from earlier work
IRS-1 = assay: Cell-free in vitro assay, tyrosine phosphorylation by immunoprecipitation and phosphotyrosine immunoblot; type: biochemical
Akt = assay: Cell-free in vitro assay (3T3-L1 adipocyte PM/CYT/LDM fractions), Akt phosphorylation by phospho-Akt immunoblot; type: biochemical

## insulin
Glucose uptake
  increase in glucose uptake in response to acute stimulation with insulin: 10-20 fold
IRS-1
  time of peak phosphotyrosine signal from start of reaction: 2.5 min
Akt; PM(+ins) and CYT, 37° C.
  time of peak insulin-stimulated Akt phosphorylation signal from start of reaction: 10 to 15 min
Akt; PM(+ins) from cells pre-exposed to 1 μM insulin at 4° C.
  Akt phosphorylation on Thr308 and Ser473 in response to insulin: properly phosphorylated
Akt; insulin added directly to in vitro reactions containing PM(−ins)
  Akt activation by direct addition of insulin: not activated
